The text below walks through data of patent US20090325862A1, “Histone Deacetylase Inhibitors for the Treatment of Neurodegeneration” (priority 2006, published 2009).

By UniProt entry, the sequences of proteins in these tests, tags left out. Where a name states a change or a piece, a line headed by the entry shows the natural chain unless it says otherwise.
UniProt O15379: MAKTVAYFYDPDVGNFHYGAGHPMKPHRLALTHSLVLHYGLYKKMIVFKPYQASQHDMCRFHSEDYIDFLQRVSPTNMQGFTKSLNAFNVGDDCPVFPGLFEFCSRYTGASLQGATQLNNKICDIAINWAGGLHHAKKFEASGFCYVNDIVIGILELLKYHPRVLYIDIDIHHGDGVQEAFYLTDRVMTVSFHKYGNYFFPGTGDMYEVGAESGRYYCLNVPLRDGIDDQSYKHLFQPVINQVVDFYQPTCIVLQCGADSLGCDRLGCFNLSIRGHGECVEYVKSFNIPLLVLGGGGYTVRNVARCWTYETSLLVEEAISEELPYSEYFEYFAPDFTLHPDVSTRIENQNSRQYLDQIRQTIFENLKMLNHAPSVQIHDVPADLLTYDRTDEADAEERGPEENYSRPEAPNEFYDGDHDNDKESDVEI

By IC50 is commonly meant the concentration that gives 50% inhibition.

This experiment addresses recombinant human HDAC3 enzyme (HDAC3(DAD) enzyme complex) (Homo sapiens, UniProt O15379). The experiment can be described thus: HDAC3 assay (Fluor-de-Lys fluorescence).

SMILES strings stand for the structures.

As to `CCCC(CCC)C(=O)O` [Valproic acid, 2-propylpentanoic acid], the IC50 came to 40 µM.
